Target: Neuropeptide FF receptor 2 (Rattus norvegicus, UniProt Q9EQD2)
Assay: Binding affinity for NPPF receptor in rat spinal cord membranes using the radioligand [125I]-[Tyr1]NPFF
Format: cell membranes, Membrane
In short: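 Displacement of [125I][Tyr1]NPFF (0.1 nM final) from rat spinal cord membranes, 30 min at 25 °C, in 50 mM Tris-HCl pH 7.4 with 120 mM NaCl, 0.5% BSA, 0.1 mM bestatin, 1 mM EDTA, 0.5 mM diisopropylfluorophosphate. Unlabeled peptides 5×10^-11–10^-6 M; nonspecific binding with 10^-6 M [Tyr1]NPFF. Stopped by ice-cold buffer and centrifugation; pellet gamma-counted. Ki via Cheng-Prusoff from IC50; three determinations.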

Sequences of proteins named here, by UniProt entry; tags and fusion partners are left off. A change or cut given only in a name is not applied to a line headed by its entry.
UniProt Q9EQD2: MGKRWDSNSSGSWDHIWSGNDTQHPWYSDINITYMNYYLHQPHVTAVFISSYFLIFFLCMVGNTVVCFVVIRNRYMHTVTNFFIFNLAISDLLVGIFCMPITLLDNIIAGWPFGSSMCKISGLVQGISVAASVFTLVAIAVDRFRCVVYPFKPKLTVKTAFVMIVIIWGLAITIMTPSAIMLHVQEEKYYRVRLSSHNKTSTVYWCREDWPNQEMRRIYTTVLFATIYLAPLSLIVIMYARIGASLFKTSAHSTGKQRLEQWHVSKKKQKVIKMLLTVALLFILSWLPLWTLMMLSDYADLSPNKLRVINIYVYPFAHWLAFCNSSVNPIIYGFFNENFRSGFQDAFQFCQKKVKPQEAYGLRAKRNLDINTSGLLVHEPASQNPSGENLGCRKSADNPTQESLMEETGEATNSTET

Ki: 15.5 nM
Structure (SMILES): N=C(N)NCCC[C@H](NC(=O)[C@H](CCC(N)=O)NC(=O)[C@@H]1CCCN1)C(=O)N[C@@H](Cc1ccccc1)C(N)=O
